In ChEMBL document CHEMBL1275443, “Functional diversity among metallo-beta-lactamases: characterization of the CAR-1 enzyme of Erwinia carotovora” (2008):

How the values were obtained:
[1] = substrate: C[C@@H](O)[C@H]1C(=O)N2C(C(=O)O)=C(S[C@@H]3CN[C@H](C(=O)N(C)C)C3)[C@H](C)[C@H]12; assay: Ratio of Kcat to Km for Pseudomonas maltophilia ULA-511 beta-Lactamase L-1; conditions: Stenotrophomonas maltophilia
[2] = substrate: C[C@@H](O)[C@H]1C(=O)N2C(C(=O)O)=C(S[C@@H]3CN[C@H](C(=O)N(C)C)C3)[C@H](C)[C@H]12; assay: Ratio of Kcat to Km for Chryseobacterium meningosepticum beta-Lactamase GOB-1; conditions: Elizabethkingia meningoseptica
[3] = substrate: C[C@@H](O)[C@H]1C(=O)N2C(C(=O)O)=C(S[C@@H]3CN[C@H](C(=O)N(C)C)C3)[C@H](C)[C@H]12; assay: Ratio of Kcat to Km for Caulobacter crescentus beta-Lactamase CAU-1; conditions: Caulobacter vibrioides
[4] = substrate: C[C@@H](O)[C@H]1C(=O)N2C(C(=O)O)=C(S[C@@H]3CN[C@H](C(=O)N(C)C)C3)[C@H](C)[C@H]12; assay: Ratio of Kcat to Km for Janthinobacterium lividum THIN-B

B1: Beta-lactamase L1 (Stenotrophomonas maltophilia), P52700 (protein)
chain: MRSTLLAFALAVALPAAHTSAAEVPLPQLRAYTVDASWLQPMAPLQIADHTWQIGTEDLTALLVQTPDGAVLLDGGMPQMASHLLDNMKARGVTPRDLRLILLSHAHADHAGPVAELKRRTGAKVAANAESAVLLARGGSDDLHFGDGITYPPANADRIVMDGEVITVGGIVFTAHFMAGHTPGSTAWTWTDTRNGKPVRIAYADSLSAPGYQLQGNPRYPHLIEDYRRSFATVRALPCDVLLTPHPGASNWDYAAGARAGAKALTCKAYADAAEQKFDGQLAKETAGAR
kcat/Km [1]: 4.5 ×10⁶ /M/s

B2: GOB-1 metallo-beta-lactamase (Elizabethkingia meningoseptica), A4GRB7 (protein)
chain: MRNFATLFFMFICLGLNAQVVKEPENMPKEWNQTYEPFRIAGNLYYVGTYDLASYLIVTDKGNILINTGTAESLPIIKANIQKLGFNYKDIKILLLTQAHYDHTGALQDLKTETGAKFYADKADADVLRTGGKSDYEMGKYGVTFKPVTPDKTLKDQDKITLGNTILTLLHHPGHTKGSCSFIFETKDEKRKYRVLIANMPSVIVDKKFSEVTAYPNIQSDYAYTFKAMKNLDFDLWVASHASQFDLHEKRKEGDPYNPQLFMDKQSYFQNLNDLEKSYLDKIKKDSQDK
kcat/Km [2]: 5.3 ×10⁶ /M/s

B3: Metallo-beta-lactamase (Caulobacter vibrioides), Q8KKG1 (protein)
chain: MKRLILAAAASLLALASAAHADDMPANWTKPTKPYRVVGNIYYVGTEGISSWLITSSEGHVVLDGGPNAETGKLVERNITALGFQLADVKILINTHAHYDHAGGLAQLKADTGAKLWISRDDAPAMAAGHHIGDNIYGPTPMPAAKPDRSFGDQTKLKLGEIAMVAHLTPGHTIGCTSWTTAVVEKGRPLTVTFPCSLSVAGNVLVGNKTHRTIVADYRASFAKLRAIPTDVMLPAHEEQGNLLAKRQKQLRGDPNAFVDPGELARFVDASEAAFNKELARQQAAGPNR
kcat/Km [3]: 2.6 ×10⁵ /M/s

B4: THIN-B proetin (Janthinobacterium lividum), Q9AEF9 (protein)
chain: MTLLAKLMLATVATMSAATVQAKTPAPKPDTPVDCDSCKAWNGEVTPFNVFGNTWYVGTAGLSAVLVTSPQGHVLLDGALPQSAPLIIANIAALGFRIEDVKFILNSHAHWDHAGGIAALQAASGATVVASASGALGLQSGTNGKDDPQFQAKPVVHVAKVEKVKVVGEGDAIKLGPLNLTAHMTPGHTPGATTWTWTSCEGQRCLDVVYADSLNPYSSGDFTYTGKGDGPDISASFAASIAKVAALPCDIILSVHPDSTGVLDKAAKRSGEHNPFIDANACRAYAATADAMLTKRLAKERGVALPAAAPAAQHAH
kcat/Km [4]: 5 ×10⁶ /M/s
